This is an account of results in ChEMBL document CHEMBL4627400, “Discovery of Dihydropyrrolo[1,2-a]pyrazin-3(4H)-one-Based Second-Generation GluN2C- and GluN2D-Selective Positive Allosteric Modulators (PAMs) of the N-Methyl-d-Aspartate (NMDA) Receptor” (J Med Chem, 2020).

Protein sequences, listed by entry. Tags and fused reporters are not part of them. Lines headed by an entry give the natural chain unless they say otherwise; changes in a name come on top.
UniProt Q00961: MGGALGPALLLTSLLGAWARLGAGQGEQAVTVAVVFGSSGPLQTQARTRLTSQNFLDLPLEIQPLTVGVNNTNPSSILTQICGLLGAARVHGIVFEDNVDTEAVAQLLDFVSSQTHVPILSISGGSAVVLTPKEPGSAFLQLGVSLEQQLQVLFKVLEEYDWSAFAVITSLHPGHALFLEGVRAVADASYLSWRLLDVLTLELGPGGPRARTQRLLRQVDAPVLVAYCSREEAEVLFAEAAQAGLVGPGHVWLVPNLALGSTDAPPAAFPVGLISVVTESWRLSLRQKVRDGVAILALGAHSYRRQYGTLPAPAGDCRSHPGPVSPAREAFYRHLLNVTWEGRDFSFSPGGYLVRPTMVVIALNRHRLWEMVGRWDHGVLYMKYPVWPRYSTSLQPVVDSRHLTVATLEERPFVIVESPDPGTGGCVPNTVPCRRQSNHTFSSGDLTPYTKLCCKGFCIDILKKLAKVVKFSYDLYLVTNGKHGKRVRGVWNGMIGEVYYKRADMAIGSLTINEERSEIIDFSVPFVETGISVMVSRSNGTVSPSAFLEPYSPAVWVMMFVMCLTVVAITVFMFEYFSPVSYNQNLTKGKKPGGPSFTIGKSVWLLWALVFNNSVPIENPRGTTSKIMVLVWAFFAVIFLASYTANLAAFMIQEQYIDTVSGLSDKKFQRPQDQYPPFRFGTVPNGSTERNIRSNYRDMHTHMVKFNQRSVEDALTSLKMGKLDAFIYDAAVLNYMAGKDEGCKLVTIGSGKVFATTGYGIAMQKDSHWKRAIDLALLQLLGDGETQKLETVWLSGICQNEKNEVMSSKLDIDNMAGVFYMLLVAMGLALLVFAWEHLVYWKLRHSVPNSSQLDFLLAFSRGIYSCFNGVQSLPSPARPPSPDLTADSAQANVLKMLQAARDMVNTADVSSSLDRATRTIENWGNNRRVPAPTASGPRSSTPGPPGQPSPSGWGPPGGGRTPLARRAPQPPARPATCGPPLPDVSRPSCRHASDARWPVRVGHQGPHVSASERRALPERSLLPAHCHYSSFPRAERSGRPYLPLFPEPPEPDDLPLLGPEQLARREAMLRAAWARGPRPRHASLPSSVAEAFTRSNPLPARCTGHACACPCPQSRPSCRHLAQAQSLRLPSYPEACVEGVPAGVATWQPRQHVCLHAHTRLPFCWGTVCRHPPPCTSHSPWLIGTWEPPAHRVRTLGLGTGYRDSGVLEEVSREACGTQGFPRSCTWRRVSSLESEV
UniProt Q62645, whole entry, looked up: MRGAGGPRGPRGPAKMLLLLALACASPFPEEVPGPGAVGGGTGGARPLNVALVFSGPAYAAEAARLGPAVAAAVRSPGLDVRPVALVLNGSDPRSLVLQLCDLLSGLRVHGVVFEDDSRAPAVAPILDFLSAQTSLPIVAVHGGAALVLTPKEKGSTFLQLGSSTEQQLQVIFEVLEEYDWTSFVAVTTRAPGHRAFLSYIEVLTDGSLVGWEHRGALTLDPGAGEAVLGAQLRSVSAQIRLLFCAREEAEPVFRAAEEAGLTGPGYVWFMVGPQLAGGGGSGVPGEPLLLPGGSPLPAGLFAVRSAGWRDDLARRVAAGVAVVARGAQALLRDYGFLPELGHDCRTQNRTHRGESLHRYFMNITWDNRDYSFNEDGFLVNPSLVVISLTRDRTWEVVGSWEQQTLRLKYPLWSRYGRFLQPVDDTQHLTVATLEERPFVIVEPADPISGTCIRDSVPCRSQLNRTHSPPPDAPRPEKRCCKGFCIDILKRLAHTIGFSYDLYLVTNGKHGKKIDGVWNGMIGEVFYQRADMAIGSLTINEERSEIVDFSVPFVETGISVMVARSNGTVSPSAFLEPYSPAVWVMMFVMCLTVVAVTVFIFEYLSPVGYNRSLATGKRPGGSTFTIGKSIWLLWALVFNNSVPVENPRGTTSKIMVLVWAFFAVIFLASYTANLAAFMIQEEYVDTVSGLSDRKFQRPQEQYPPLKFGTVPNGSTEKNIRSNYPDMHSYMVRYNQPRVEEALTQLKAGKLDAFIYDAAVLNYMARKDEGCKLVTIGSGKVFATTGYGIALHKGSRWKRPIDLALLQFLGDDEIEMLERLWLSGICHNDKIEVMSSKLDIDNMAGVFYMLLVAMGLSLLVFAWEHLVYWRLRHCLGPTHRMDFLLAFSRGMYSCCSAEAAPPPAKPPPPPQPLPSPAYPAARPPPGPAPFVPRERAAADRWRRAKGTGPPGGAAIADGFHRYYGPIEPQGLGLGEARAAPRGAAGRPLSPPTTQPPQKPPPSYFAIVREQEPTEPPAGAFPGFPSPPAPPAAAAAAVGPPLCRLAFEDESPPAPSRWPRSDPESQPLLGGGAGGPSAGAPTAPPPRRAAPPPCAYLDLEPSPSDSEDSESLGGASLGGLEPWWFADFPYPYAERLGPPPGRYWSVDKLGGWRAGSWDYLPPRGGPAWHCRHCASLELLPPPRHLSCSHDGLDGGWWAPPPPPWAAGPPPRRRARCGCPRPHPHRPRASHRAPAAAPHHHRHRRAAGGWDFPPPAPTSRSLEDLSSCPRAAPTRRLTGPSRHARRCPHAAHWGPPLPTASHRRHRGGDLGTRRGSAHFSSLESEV

Format in all cases: cell-based
For experiment [1], the target named is T1, Glutamate NMDA receptor; Grin1/Grin2c (Rattus norvegicus) (UniProt P35439+Q00961). In words: Positive allosteric modulation of recombinant rat GluN1a/GluN2C receptor expressed in Xenopus laevis oocytes assessed as increase in glycine/L-glutamate-induced channel current by measuring log of doubling concentration by two-electrode voltage clamp method.
In experiment [2] the target is Ionotropic glutamate receptor NMDA 1/2D (Rattus norvegicus) (UniProt P35439+Q62645). In words: Positive allosteric modulation of recombinant rat GluN1a/GluN2D receptor expressed in Xenopus laevis oocytes assessed as increase in glycine/L-glutamate-induced channel current by measuring log of doubling concentration by two-electrode voltage clamp method. In a few lines:
(§1)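 Oocytes expressing rat GluN1/GluN2C or GluN2D, held at −40 mV in HEPES-buffered Ba2+ solution, pH 7.4, 23 °C. Compound (DMSO stock 20 mM) co-applied with 100 μM glutamate and 30 μM glycine. Current given as percent of agonist-alone response. […] Doubling concentration is the concentration giving 2-fold response; reported as […] log. 6–19 oocytes from 2–3 frogs.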
For orientation: Two-electrode voltage clamp holds a large cell at a set potential and records current.

For experiment [3], the target named is T1, Glutamate NMDA receptor; Grin1/Grin2c (Rattus norvegicus). In words: Positive allosteric modulation of recombinant rat GluN1a/GluN2C receptor expressed in Xenopus laevis oocytes assessed as increase in glycine/L-glutamate-induced channel current at 30 uM by two-electrode voltage clamp method relative to control. The essentials:
as §1

Take `COc1ccc(OCC2c3ccc(OCC(C)C)cc3CC(=O)N2Cc2cccc(Cl)c2)cc1` (configuration not stated): the log(activity) in experiment [1] is -6.2; in experiment [2], -6.4.

Regarding `COc1ccc(OCC2c3ccc(OC)cc3CC(=O)N2Cc2cccc(Cl)c2)cc1` (configuration not stated), the log(activity) in experiment [1] was -5.6; in experiment [2] it was -5.7. Consider `COc1ccc(OCC2c3cccn3CC(=O)N2Cc2cccc(C(F)(F)F)c2)cc1` (configuration not stated), for which the values for the log(activity) in experiment [1] and in experiment [2] were -5.9 and -6.1, respectively. Taken in the same sequence, the figures for `COc1ccc(OCC2c3ccsc3CCN2C(=O)c2cccc(Cl)c2)cc1` (configuration not stated) were -5.5 and -5.4. As for `COc1ccc(OCC2c3ccc(OC)cc3CCN2C(=O)c2cccc(Cl)c2)cc1` (configuration not stated), the log(activity) in experiment [1] is -5.5; in experiment [2], -5.3. For the same compound, the %max in experiment [3] came to 240%.

For `COc1ccc(OCC2c3cccn3CCN2C(=O)c2cccc(Cl)c2)cc1` (configuration not stated), the log(activity) in experiment [1] was -5.9; in experiment [2], -5.8.

For the compound `COc1ccc(OCC2c3ccc(OC(C)C)cc3CCN2C(=O)c2cccc(Cl)c2)cc1` (configuration not stated), the log(activity) in experiment [1] is -5.3; in experiment [2] it was -5.2. Consider `COc1ccc(OCC2c3ccc(OC(C)C)cc3CC(=O)N2Cc2cccc(C(F)(F)F)c2)cc1` (configuration not stated), for which the log(activity) in experiment [1] and in experiment [2] was -6.3 throughout. Turning to `COc1ccc(OCC2c3ccc(OC(C)C)cc3CCN2C(=O)c2cccc(F)c2)cc1` (configuration not stated), the log(activity) in experiment [2] is -5.5.

As for `COc1ccc(OCC2c3cccn3CC(=O)N2Cc2cccc(F)c2)cc1` (configuration not stated), the log(activity) in experiment [2] is -5.7. Regarding `COc1ccc(OC[C@H]2c3cccn3CCN2C(=O)c2cccc(Cl)c2)cc1`, the log(activity) is -6.1 in experiment [1] and -6.2 in experiment [2]. For `COc1ccc(OCC2c3sccc3CCN2C(=O)/C=C/C(F)(F)F)cc1` (configuration not stated), the log(activity) is -4.8 in experiment [1] and -4.9 in experiment [2]. In the same order, the values of `COc1ccc(OCC2c3cc(OC)c(OC)cc3CC(=O)N2Cc2cccc(Cl)c2)cc1` (configuration not stated) are -5.1 and -5.1. Consider `COc1ccc(OC[C@H]2c3cccn3CCN2C(=O)c2cccc(C(F)(F)F)c2)cc1`, for which the figures for the log(activity) in experiment [1] and in experiment [2] were -6.3 and -6.4, respectively. As to `COc1ccc(OCC2c3ccc(OC(C)C)cc3CC(=O)N2Cc2cccc(Cl)c2)cc1` (configuration not stated), the log(activity) in experiment [1] and in experiment [2] was -6.6 each time. `COc1ccc(OCC2c3ccc(OC(C)C)cc3CCN2C(=O)c2cccc(C(F)(F)F)c2)cc1` (configuration not stated): the results for the log(activity) in experiment [1] and in experiment [2] were -6 and -5.8, respectively. Regarding `COc1ccc(OCC2c3sccc3CCN2C(=O)c2ccc(Cl)s2)cc1` (configuration not stated), the log(activity) in experiment [1] was -5.3; in experiment [2], -5.6.

With `COc1ccc(OCC2c3cc(OC)c(OC)cc3CCN2C(=O)c2cccc(Cl)c2)cc1` (configuration not stated), the results for the log(activity) in experiment [1] and in experiment [2] were -4.9 and -4.5, respectively.

For `COc1ccc(OCC2c3ccc(OCC(C)C)cc3CCN2C(=O)c2cccc(Cl)c2)cc1` (configuration not stated), the log(activity) in experiment [1] was -6.4; in experiment [2] it was -6.3. Turning to `COc1ccc(OCC2c3ccc(OC)cc3CC(=O)N2CCCC(F)(F)F)cc1` (configuration not stated), the log(activity) in experiment [1] was -5; in experiment [2] it was -5.1. On to `COc1ccc(OCC2c3occc3CCN2C(=O)c2cccc(Cl)c2)cc1` (configuration not stated), for which the log(activity) in experiment [1] is -5.4; in experiment [2], -5.5. For `COc1ccc(OC[C@H]2c3cccn3CC(=O)N2Cc2cccc(C(F)(F)F)c2)cc1`, the log(activity) in experiment [1] is -6; in experiment [2] it was -6.2. As for `COc1ccc(OC[C@H]2c3cccn3CC(=O)N2Cc2cccc(F)c2)cc1`, the log(activity) in experiment [2] is -5.8.

As to `COc1ccc(OCC2c3ccccc3CCN2C(=O)c2cccc(Cl)c2)cc1` (configuration not stated), the log(activity) in experiment [1] and in experiment [2] was -5 in each case.

As for `COc1ccc(OCC2c3cccn3CCN2C(=O)c2cccc(C(F)(F)F)c2)cc1` (configuration not stated), the log(activity) is -6.1 in experiment [1] and -5.6 in experiment [2]. Consider `COc1ccc(OCC2c3ccc(OC(C)C)cc3CC(=O)N2Cc2cccc(F)c2)cc1` (configuration not stated), for which the log(activity) in experiment [1] is -6; in experiment [2], -5.8. In the case of `COc1ccc(OCC2c3sccc3CCN2C(=O)c2cccc(Cl)c2)cc1` (configuration not stated), the results for the log(activity) in experiment [1] and in experiment [2] were -5.3 and -5.6, respectively.
